Measured values as given in PMC9795464 (JACS Au, 2022).

Chains of the proteins cited; added tags and fusions are not shown. Lines headed by an entry give the natural chain unless they say otherwise; changes in a name come on top.
UniProt Q96RI1: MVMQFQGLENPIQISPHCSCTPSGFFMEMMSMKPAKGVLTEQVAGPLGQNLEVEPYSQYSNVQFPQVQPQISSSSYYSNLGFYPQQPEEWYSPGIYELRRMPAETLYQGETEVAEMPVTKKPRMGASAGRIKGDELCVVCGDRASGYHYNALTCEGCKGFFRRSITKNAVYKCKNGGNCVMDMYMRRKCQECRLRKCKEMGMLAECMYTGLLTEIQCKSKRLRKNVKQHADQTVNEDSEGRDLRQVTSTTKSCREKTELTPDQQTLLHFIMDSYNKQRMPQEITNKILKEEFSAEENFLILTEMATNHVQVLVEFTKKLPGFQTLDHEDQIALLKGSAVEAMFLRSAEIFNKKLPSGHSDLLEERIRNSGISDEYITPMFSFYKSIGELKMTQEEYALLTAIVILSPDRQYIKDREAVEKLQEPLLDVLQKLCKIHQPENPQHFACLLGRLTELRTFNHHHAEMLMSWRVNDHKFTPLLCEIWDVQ

Biological target: T1, FXR (Homo sapiens, UniProt Q96RI1)
T1 sequence (Q96RI1 1-472 isoform Q96RI1-2): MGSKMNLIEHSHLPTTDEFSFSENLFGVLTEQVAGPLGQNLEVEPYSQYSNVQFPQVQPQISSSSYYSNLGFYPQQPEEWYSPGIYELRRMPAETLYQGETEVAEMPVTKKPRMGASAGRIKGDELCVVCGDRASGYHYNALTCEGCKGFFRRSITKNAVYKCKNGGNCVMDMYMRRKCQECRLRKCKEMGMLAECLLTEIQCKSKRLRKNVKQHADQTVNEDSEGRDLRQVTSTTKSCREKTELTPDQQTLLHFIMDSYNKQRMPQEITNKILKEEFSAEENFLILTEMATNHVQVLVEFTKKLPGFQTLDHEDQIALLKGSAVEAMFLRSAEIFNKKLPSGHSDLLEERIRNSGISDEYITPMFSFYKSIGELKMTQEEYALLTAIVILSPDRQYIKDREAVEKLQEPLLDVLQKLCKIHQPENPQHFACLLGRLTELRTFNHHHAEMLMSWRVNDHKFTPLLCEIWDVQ
Assay type: cell-based

effect on OCA- or FA-elevated FXR transcriptional activity: reversed
Substance: Guggulsterone E&Z [GS]
